Data as given in US10918654B1, “Rutin compositions” (Alps Pharmaceutical Ind. Co., Ltd., priority 2019, dated 2021).

Assay: Stability of the flavonoid in aqueous L-arginine/sodium ascorbate solution at 50° C., intact amount by HPLC
Assay type: physicochemical
Conditions: for amount of intact flavonoid remaining, of the initial amount in the solution: dissolved in water with L-arginine and sodium ascorbate, HPLC
Method: A composition containing rutin, L-arginine, and ascorbate was prepared in water by mixing 0.0071 mol rutin with an aqueous solution containing 0.020 mol L-arginine, heating the mixture to 80° C. until the rutin dissolved completely, and adding 0.0010 mol sodium ascorbate.
After cooling the above solution, the stability of rutin was tested by heating the mixture to 50° C. and quantifying the amount of intact rutin remaining by HPLC after 0 h, 5 h, and 24 h.
A similar study was performed to assess the stability of a flavonoid related to rutin, i.e., catechin, after dissolving it with L-arginine and sodium ascorbate. […] It was quite unexpected that only 2.8% of the rutin degraded after 24 h, as compared to 97.7% of the catechin under identical conditions.

catechin
amount of intact flavonoid remaining, of the initial amount in the solution (5 h at 50° C.): 30.8%
amount of intact flavonoid remaining, of the initial amount in the solution (24 h at 50° C.): 2.3%
flavonoid degraded (after 24 h at 50° C., with L-arginine and sodium ascorbate): 97.7%
